Test results taken from ChEMBL document CHEMBL4806957, “Cdk8/cdk19 selective inhibitors and their use in anti-metastatic and chemopreventive methods for cancer” (2019).

By UniProt entry, the sequences of proteins in these tests, tags left out. Where a name states a change or a piece, a line headed by the entry shows the natural chain unless it says otherwise.
UniProt Q9BWU1: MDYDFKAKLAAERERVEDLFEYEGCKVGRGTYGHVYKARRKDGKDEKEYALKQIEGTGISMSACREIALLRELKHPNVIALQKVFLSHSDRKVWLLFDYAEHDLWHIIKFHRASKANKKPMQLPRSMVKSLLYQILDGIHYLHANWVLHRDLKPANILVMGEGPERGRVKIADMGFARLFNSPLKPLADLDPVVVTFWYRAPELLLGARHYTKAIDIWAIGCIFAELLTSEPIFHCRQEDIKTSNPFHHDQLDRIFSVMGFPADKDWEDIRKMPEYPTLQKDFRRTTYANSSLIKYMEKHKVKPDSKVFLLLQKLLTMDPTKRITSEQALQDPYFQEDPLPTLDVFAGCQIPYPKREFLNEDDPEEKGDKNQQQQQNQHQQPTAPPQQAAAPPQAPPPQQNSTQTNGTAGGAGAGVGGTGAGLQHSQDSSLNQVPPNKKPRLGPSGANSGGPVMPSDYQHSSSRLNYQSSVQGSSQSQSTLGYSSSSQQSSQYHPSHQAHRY

Molecular target: Cyclin-dependent kinase 19 (Homo sapiens, UniProt Q9BWU1)
Experiment: Inhibition of CDK19 (unknown origin)

Kd: 80 nM
SMILES: CN1CCN(C(=O)c2ccc3cc(CCNc4ncnc5ccc(C#N)cc45)ccc3c2)CC1 [SENEXIN B]
